Source: PubChem BioAssay (National Center for Advancing Translational Sciences (NCATS))
Most compounds without a hit are left out; they make up all but 16% or so of the library.
DT40 TDP1 no CPT: qHTS for Inhibitors of human tyrosyl-DNA phosphodiesterase 1 (TDP1): qHTS in cells in absence of CPT; DT40 Tdp1-/- hTDP1 cells, no CPT, ATP luminescence, 48 h; Potency, µM (series often up to 46.2 µM), usual class: inhibitors; hit rate 15% among 420,000; AID 686978, 2013; also: nearly all actives have a fitted effect of over 55% in size
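Camptothecin absent (DMSO only). Human TDP1-complemented DT40 knockout cells, 400 cells/well, 37 °C for minimum 48 hr; ATP measured via CellTiter-Glo, 30 min dark incubation, luminescence.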
TDP1 cell CPT: growth inhibition of DT40 Tdp1-/-;hTDP1 cells with camptothecin (screen for TDP1 inhibitors); Potency, µM (series often up to 46.2 µM), most hits filed as inhibitors; chicken DT40 Tdp1-/-;hTDP1 cells + 20 nM CPT, ATP luminescence, 48 h; hit rate 12% among 420,000; AID 686979; also: nearly all actives have a fitted effect of over 55% in size
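Cell growth measured by CellTiter-Glo luminescence after a minimum 48 h, 37 C compound exposure with 20 nM CPT in Tdp1-knockout DT40 cells stably expressing hTDP1, seeded 400/well; qHTS titration format.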
TDP1 inh: blocks human tyrosyl-DNA phosphodiesterase 1 | Q9NUW8 | recombinant TDP1, AlphaScreen DNA substrate cleavage | Potency, µM (titrated, usually from 130 µM), usual class: inhibitors | hit rate 0.28% among 350,000 | AID 485290; also: nearly all actives have a fitted effect of over 40% in size
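AlphaScreen read-out: signal falls as enzyme removes the 3' tyrosine-FITC from a 5'-biotinylated DNA oligo (15 nM, 5 min, RT). Enzyme was E. coli-made recombinant Tdp1 at 1 nM, exposed to compound for 15 min beforehand; beads 10 ug/ml, 10 min.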
uPA surface inh: cell surface uPA generation inhibition; cell surface uPA generation assay, qHTS; Potency, µM (highest dose often 38.3 µM), actives largely listed as inhibitors; hit rate 0.31% among 330,000; active = well fitted inhibition curve with a large enough effect; inconclusive = small, poorly fitted or top-dose-only effect; inactive = no such curve, though single readings can be large or run the other way; tested in mouse RAW 264.7 cells; also: nearly all actives have a fitted effect of over 55% in size
miR-21 reporter: raises the signal of a miR-21 reporter | Potency, µM (highest dose often 38.3 µM) | HeLa miR-21 FLuc reporter, luciferase, 48 h | 340,000 tested, under 10 active; active = well fitted rising curve with a large enough effect; inconclusive = small, poorly fitted or top-dose-only effect; inactive = no such curve, though single readings can be large or run the other way;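 further: miR-21 action dims this reporter so a rising signal means less miR-21 action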
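HeLa cells endogenously expressing miR-21, stably carrying CMV-driven firefly luciferase with a downstream miR-21 binding site, 2000 cells/well. Titrations up to approximately 40 uM, 48 hours; luciferase luminescence read.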
Numbers stand for hits; i = inactive; ? = inconclusive; nt = no result. Unless noted, calls follow the shape of the dose curve; as a rule, active = well fitted curve in the direction sought with a large enough effect; inconclusive = small, poorly fitted or top-dose-only effect, or another doubt; inactive = no such curve, though single readings can be large; an effect the other way counts as inactive or inconclusive.

SMILES	DT40 TDP1 no CPT	TDP1 cell CPT	TDP1 inh	uPA surface inh	miR-21 reporter
CN(c1ccccc1)S(=O)(=O)c1ccc(Cl)c(C(=O)OCC(=O)c2c(N)n(C)c(=O)n(C)c2=O)c1	?	23µM	nt	i	nt
Cn1c(=O)c(C(=O)COC(=O)c2cc(C3CC3)nc3ccccc23)c(N)n(Cc2ccccc2)c1=O	16µM	21µM	i	i	i
C=CCN(c1ccc(OC)cc1)S(=O)(=O)c1ccc(Cl)c(C(=O)OCC(=O)c2c(N)n(C)c(=O)n(C)c2=O)c1	?	?	nt	i	nt
Cn1c(N)c(C(=O)COC(=O)c2cccc(S(=O)(=O)NCc3ccccc3)c2)c(=O)n(C)c1=O	?	?	i	i	nt
CNS(=O)(=O)c1cccc(C(=O)OCC(=O)c2c(N)n(Cc3ccccc3)c(=O)n(C)c2=O)c1	?	15µM	nt	i	nt
COc1ccc(N(C)S(=O)(=O)c2cccc(C(=O)OCC(=O)c3c(N)n(C)c(=O)n(C)c3=O)c2)cc1	13µM	23µM	i	?	nt
CCc1ccc(OCc2nnc(SCC(=O)N3CCOCC3)o2)cc1	i	i	i	i	i
CCN(c1ccccc1)S(=O)(=O)c1cccc(C(=O)OCC(=O)c2c(N)n(C)c(=O)n(C)c2=O)c1	18µM	?	nt	i	nt
Cc1ccc2nc(NC(=O)CSc3nc4c(c(=O)n3C)SC(C)C4)sc2c1 (stereo unspecified)	21µM	21µM	i	i	i
CCOC(=O)c1ccc(NC(=O)CSc2nc3c(c(=O)n2C)SC(C)C3)cc1 (stereo unspecified)	26µM	18µM	i	i	i
Cc1ccc(C)c(NC(=O)CSc2nc3c(c(=O)n2C)SC(C)C3)c1 (stereo unspecified)	?	?	i	i	i
Cc1ccc2cc(C=O)c(N(C)C)nc2c1	i	i	i	i	i
Cc1cc2cc(C=O)c(Cl)nc2cc1C	18µM	?	i	i	i
O=C(O)C1C2C=CC(O2)C1C(=O)Nc1ccc(S(=O)(=O)Nc2ccccc2)cc1 (stereo unspecified)	?	15µM	i	nt	i
Cc1cc(-c2ccc(C)c(S(=O)(=O)Nc3cccc(CN4CCCC4)c3)c2)on1	i	i	i	i	i
COc1cccc(CCN2CCC(CNS(=O)(=O)c3cc(-c4cc(C)no4)ccc3C)CC2)c1	?	?	i	?	i
COc1cccc(NS(=O)(=O)c2cc(-c3cnc(C4CC4)o3)ccc2C)c1	0.58µM	0.92µM	i	nt	?
Cc1ccc(-c2cnc(C3CC3)o2)cc1S(=O)(=O)Nc1cccc(C#N)c1	5.8µM	5.8µM	i	nt	?
O=C(c1cc(-c2ccc(F)cc2)on1)N1CCCC1	i	i	i	i	i
O=C(/C=C/c1ccc(-c2ccc(F)cc2)o1)N1CCCC1	21µM	?	i	i	i
Cc1ccc(/C=C/C(=O)N2CCCN(C(=O)/C=C/c3ccc(C)cc3)CC2)cc1	15µM	?	i	i	i
O=C(c1ccc(S(=O)(=O)N2CCOCC2)cc1)N1CCN(c2ccc(F)cc2)CC1	?	i	i	i	i
O=C(/C=C/c1ccc(S(=O)(=O)N2CCOCC2)cc1)N1CCN(c2ccc(F)cc2)CC1	3.7µM	7.3µM	i	i	i
O=C(/C=C/c1ccc(F)cc1)N1CCCc2ccccc21	18µM	?	i	i	i
C=C[C@]12CC[C@H](OC(C)=O)CC1=CCC1C2CC[C@@]2(C)C1CCC21OCCO1 (stereo partly specified)	?	?	nt	i	nt
SMILES	DT40 TDP1 no CPT	TDP1 cell CPT	TDP1 inh	uPA surface inh	miR-21 reporter
O=C(/C=C/c1ccc(F)cc1)N1CCCN(C(=O)/C=C/c2ccc(F)cc2)CC1	?	16µM	i	i	i
N=C(N1CCCc2ccccc21)N1CCCc2ccccc21	21µM	16µM	nt	i	nt
CCOC(=O)N1CCN(C(=O)/C=C/c2ccc(C(C)(C)C)cc2)CC1	16µM	?	i	i	i
O=C(C(=O)N1CCCc2ccccc21)N1CCCc2ccccc21	?	i	i	i	i
CN(C)C(CNC(=O)c1ccc(NS(=O)(=O)c2ccc(F)c(F)c2)cc1)c1ccccc1 (stereo unspecified)	i	i	nt	i	nt
CC1CCCN(S(=O)(=O)c2csc(C(N)=O)c2)C1 (stereo unspecified)	i	i	i	i	i
O=C(c1cc(-c2ccncc2)nc2ccc(Br)cc12)N1CCN(Cc2ccc3c(c2)OCO3)CC1	23µM	?	i	i	i
COc1ccc(CN2CCN(C(=O)c3cc(-c4cccnc4)nc4ccc(Cl)cc34)CC2)c(OC)c1OC	21µM	?	i	i	i
O=C(O)c1cc(-c2ccc3c(c2)OCO3)nc2ccc(Cl)cc12	i	i	i	i	i
O=C(c1cccn2c(=O)c3ccc(Cl)cc3nc12)N1CCN(Cc2ccc3c(c2)OCO3)CC1	18µM	?	i	nt	i
CCOc1ncccc1C(=O)N1CCN(Cc2ccc3c(c2)OCO3)CC1	i	i	i	i	i
O=C(c1cc(-c2ccncc2)nc2ccc(Cl)cc12)N1CCN(Cc2ccc3c(c2)OCO3)CC1	23µM	16µM	i	i	i
Cc1cccc(NC(=O)c2cc(S(=O)(=O)N3CCCCCC3)cn2C)c1C	?	?	i	nt	i
CCC(C)NS(=O)(=O)c1ccc(OCC(=O)N2CCCC2)cc1 (stereo unspecified)	i	i	i	i	i
Cc1cc(C)cc(Nc2cc(C(=O)NCCCN(Cc3ccccc3)C(C)C)c3ccccc3n2)c1	3.3µM	3.3µM	i	nt	i
CSc1cccc(Nc2cc(C(=O)NCCCN(Cc3ccccc3)C(C)C)c3ccccc3n2)c1	4.6µM	5.8µM	i	nt	?
COc1cn(-c2ccccc2)nc1C(=O)Nc1ccc(C)cc1Cl	?	i	?	i	i
Cc1ccc(C(=O)Nc2ccc(Nc3ccccc3)cc2)c(Cl)c1	?	?	nt	i	i
O=C(Nc1ccc(Nc2ccccc2)cc1)c1ccc(F)cc1	21µM	?	nt	i	i
O=C(Nc1ccc(Nc2ccccc2)cc1)c1c(Cl)cccc1Cl	21µM	?	nt	i	nt
O=C(Nc1ccc(Cl)cc1)Nc1ccccc1Sc1ncc([N+](=O)[O-])s1	6.5µM	6.5µM	i	?	i
O=P(C(=S)Nc1ccccc1Cl)(c1ccccc1)c1ccccc1	15µM	9.2µM	nt	nt	nt
O=C1Nc2ccccc2/C1=N/N=C/c1ccc(-c2ccc([N+](=O)[O-])cc2)o1	?	?	i	?	i
Cn1nc(C(=O)OCC(=O)Nc2cccc(S(=O)(=O)N3CCCC3)c2)c2ccccc2c1=O	i	i	i	i	i
COC(=O)N/N=C\c1cc(Br)ccc1OCc1ccccc1	?	?	i	i	i
CN(C)c1cccc(F)c1C(=O)NC(=O)Nc1ccc(Cl)cc1	6.5µM	5.2µM	nt	i	nt
Cc1ccc(NC(=O)c2c(F)cccc2Cl)cc1NS(C)(=O)=O	i	i	i	i	i
